{"source": "the supplement of paper PMC9135407", "note": "This is a selection; strong and weak results do not stand in their true shares.", "data": [{"system": "primary human hepatic stellate cells (donor 1)", "test": "scaled lipid accumulation score (0 = DMSO-like, 1 = nortriptyline-like); higher = stronger HSC inactivation (lipid re-accumulation), active = hit call of the paper", "settings": "library stock concentration: 10 mM; 48 h;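 active = score above a cut-off or among the top three wells of a plate; in these data no inactive exceeds 0.85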", "description": "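Primary lipid accumulation screen in primary human hepatic stellate cell myofibroblasts (donor 1, passage 8) in 384-well plates. 100 nL of library compound was pin-transferred into 30 µL medium in duplicate, and cells were treated for 48 h. The 'Scaled' score combines distance from plate baseline, toxicity and reproducibility penalties, and is normalised to nortriptyline (positive) and DMSO (negative) controls on each plate. A hit is defined as scaled >0.85 or among the top 3 wells per plate.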", "values": [{"smiles": "Br.Br.N=C(NCCc1ccc(I)cc1)SCCCc1cnc[nH]1", "note": "[Iodophenpropit dihydrobromide]", "scaled lipid accumulation score": "active: 1.67"}]}]}
